Measured values: US20150337019A1 (MANUKAMED HOLDINGS LIMITED PARTNERSHIP, published 2015)
Read-outs that look alike come from different tables or passages of the source.

Tests used:
Assay in all cases: cell-based or functional assay
[1] = target: T1, Cathepsin B from bovine spleen (bovine, UniProt P07688 80-332)
[2] = target: T1, Cathepsin B from bovine spleen; remark: listed apart in the source
[3] = target: T1, Cathepsin B from bovine spleen; remark: listed apart in the source
[4] = target: T1, Cathepsin B from bovine spleen; remark: listed apart in the source
[5] = target: T1, Cathepsin B from bovine spleen; remark: listed apart in the source
[6] = target: T1, Cathepsin B from bovine spleen; remark: listed apart in the source
[7] = target: T1, Cathepsin B from bovine spleen; remark: listed apart in the source

B1: MGO-modified Ac-KN-OH (peptide)
peptide: KN
modifications: N-terminal acetyl (Ac); C-terminal acid (OH); MGO-modified (methylglyoxal; site not given)
For B1, the “Cathepsin B inhibition test, 2 mM peptide” value (“Cathepsin B inhibition test” for short) [1] was 112.

MNR (free N-terminus (H); C-terminal acid (OH)) [H-MNR-OH] was tested, and the “Cathepsin B inhibition test” value [2] was 112.

For KI (N-terminal acetyl (Ac); C-terminal acid (OH)) [Ac-KI-OH], the “Cathepsin B inhibition test” value [3] was 109.

For SK (N-terminal acetyl (Ac); C-terminal acid (OH)) [Ac-SK-OH], the “Cathepsin B inhibition test” value [4] was 138.

B2: MGO-modified Ac-SK-OH (peptide)
peptide: SK
modifications: N-terminal acetyl (Ac); C-terminal acid (OH); MGO-modified (methylglyoxal; site not given)
In the case of B2, the “Cathepsin B inhibition test” value [4] is reported as 116.

B3: MGO-modified Ac-HSSK-OH (peptide)
peptide: HSSK
modifications: N-terminal acetyl (Ac); C-terminal acid (OH); MGO-modified (methylglyoxal; site not given)
With B3 the “Cathepsin B inhibition test” value [4] was 135.

With KS (N-terminal acetyl (Ac); C-terminal acid (OH)) [Ac-KS-OH] the “Cathepsin B inhibition test” value [5] was 135.

B4: MGO-modified Ac-KS-OH (peptide)
peptide: KS
modifications: N-terminal acetyl (Ac); C-terminal acid (OH); MGO-modified (methylglyoxal; site not given)
With B4 the “Cathepsin B inhibition test” value [5] was 111.

B5: MGO-modified Ac-KH-OH (peptide)
peptide: KH
modifications: N-terminal acetyl (Ac); C-terminal acid (OH); MGO-modified (methylglyoxal; site not given)
With B5 the “Cathepsin B inhibition test” value [6] was 116.

B6: MGO-modified Ac-KHNN-OH (peptide)
peptide: KHNN
modifications: N-terminal acetyl (Ac); C-terminal acid (OH); MGO-modified (methylglyoxal; site not given)
B6 was tested, and the “Cathepsin B inhibition test” value [6] was 112.

With QNKH (N-terminal acetyl (Ac); C-terminal acid (OH)) [Ac-QNKH-OH] the “Cathepsin B inhibition test” value [6] was 138.

B7: MGO-modified H-QNDNR-OH (peptide)
peptide: QNDNR
modifications: free N-terminus (H); C-terminal acid (OH); MGO-modified (methylglyoxal; site not given)
With B7 the “Cathepsin B inhibition test” value [7] was 116.
